PDI inh = blocks human protein disulfide isomerase activity. P07237. PDI insulin aggregation turbidity, A650, 90 min. inhibition, % at 10 µM. 0.052% of 350,000 active. AID 588391;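 active means mean inhibition across replicates of 30% or more, whatever share of single replicates reach that level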
S100A4 inh HTS = inhibitors of human S100A4 binding to myosin IIA peptide; P26447; S100A4/TAMRA-MyoIIA peptide fluorescence polarization; inhibition, % at 10.7 µM; 0.14% of 360,000 active; AID 652163;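 active means mean inhibition of at least 70% across replicates, with every replicate also reaching that level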
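Material: S100A4 monomer protein | Medium: HEPES pH 7.2 with CaCl2, KCl, NaCl, DTT, Triton | Reagent: Labelled myosin peptide probe, 5 nM | Doses: One dose per compound | Times: 5 min incubation before reading | Benchmarks: Neutral control DMSO, positive control TFP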
SIRT5 block = sirtuin-5 (human) deacylase inhibition | Q9NXA8 | Purified SirT5, succinyl-peptide AMC, trypsin-coupled fluorescence | inhibition, % at 15 µM | 1.1% of 330,000 active | AID 652115; in the data active means inhibition above about 15%
ERp5 block = ERp5 (human) disulfide isomerase inhibition; 0.05% of 350,000 active; inhibition, % at 9.99 µM; AID 651711; Q15084; ERp5 insulin aggregation, absorbance 650 nm, 90 min;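 active means mean replicate inhibition above about 25%, with every replicate also reaching it, limit read from the data, passing the limit was not always enough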
FGF22 binding = binders of recombinant human FGF22 by thermal shift | activity (Tm shift, normalised), % at 9.99 µM | Q9HCT0 | SYPRO orange fluorescence; percent of sucrose octasulfate shift, DMSO zero | 1.5% of 340,000 active;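 active means mean Tm shift, scaled 0 neutral to 100 positive control, at about 1.3% or above, every replicate too, limit read from the data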
Yeast UUG start-1 = alters start codon recognition fidelity in yeast. S. cerevisiae UUG-firefly luciferase reporter, luminescence/redox ratio. AID 602363. activity score, % at 18.7 µM. hit rate 0.13% among 350,000;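 active = replicate mean at a twofold rise or more, about +100% in these data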;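 note: firefly luciferase made from a UUG start codon reports start codon fidelity; reporter light over untreated wells divided by growth signal over untreated wells; some hits fall short of that in this replicate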
Yeast UUG start-2 = alters UUG start codon use in yeast; 540 tested, under 10 active; activation, % at 38 µM; S. cerevisiae UUG-start firefly luciferase, luminescence, 4 h; 100% means double the DMSO signal; AID 652061; shares compounds with Yeast UUG start-1;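 active means signal increase whose fitted curve reaches an absolute level of 40 at a concentration under 10 µM; inactive means activity opposite to the expected increase, or the rest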
The depositor's hits bear a star; x = no result. The list is not random: actives were taken first. Their share in the collection is about 2.2%.

SMILES	PDI inh	S100A4 inh HTS	SIRT5 block	ERp5 block	FGF22 binding	Yeast UUG start-1	others
O=c1cc(-c2ccccc2[N+](=O)[O-])oc2ccccc12	-2	3	-1	1	43*	x
O=c1cc(-c2ccccc2F)oc2ccccc12	-6	x	x	x	x	-22
C[C@@H]1CCCCO[C@@H](CN(C)S(=O)(=O)c2cn(C)cn2)[C@@H](C)CN([C@H](C)CO)C(=O)c2cc(NS(=O)(=O)c3ccc(Cl)cc3)ccc2O1	x	103*	2	-5	0	14
Cc1noc(C)c1S(=O)(=O)Nc1ccc2c(c1)C(=O)N([C@@H](C)CO)C[C@@H](C)[C@H](CN(C)S(=O)(=O)c1cn(C)cn1)OCCCC[C@@H](C)O2	x	-6	-4	3	34*	0
Cc1ccc(S(=O)(=O)Nc2ccc3c(c2)C(=O)N([C@@H](C)CO)C[C@@H](C)[C@@H](CN(C)S(=O)(=O)c2cn(C)cn2)OCCCC[C@@H](C)O3)cc1	x	133*	5	-2	0	5
C[C@@H]1CCCCO[C@H](CN(C)S(=O)(=O)c2cn(C)cn2)[C@H](C)CN([C@@H](C)CO)C(=O)c2cc(NS(=O)(=O)c3ccc(Cl)cc3)ccc2O1	x	-1	5	-3	-1	15
OC[C@@H]1[C@@H](c2ccccc2)C2(CN(Cc3nccs3)C2)N1Cc1ccncc1	x	2	16*	3	0	x
CCCNC(=O)N1CC2(C1)[C@H](c1ccccc1)[C@H](CO)N2Cc1cccc(F)c1	x	1	24*	0	0	x
O=C(C1CCCC1)N1CC2(C1)[C@H](c1ccccc1)[C@H](CO)N2Cc1nccs1	x	3	18*	0	x	x
O=C(C1CCCC1)N1CC2(C1)[C@H](c1ccccc1)[C@@H](CO)N2Cc1ccc(Cl)cc1	x	14	31*	1	x	x
CC(C)C(=O)Nc1ccc2c(c1)C(=O)N(C)[C@@H]1CC[C@@H](CC(=O)Nc3ccccc3)O[C@@H]1CO2	x	6	-3	4	0	x
C[C@@H]1CN([C@H](C)CO)C(=O)c2cccc(NC(=O)NC3CCCCC3)c2O[C@@H]1CN(C)S(=O)(=O)c1cccs1	x	-7	5	9	0	-17
CC(C)NC(=O)Nc1ccc2c(c1)C(=O)N([C@@H](C)CO)C[C@H](C)[C@@H](CN(C)CC1CCCCC1)OCCCC[C@H](C)O2	x	6	0	-6	0	x
C[C@H](CO)N1C[C@H](C)[C@H](CN(C)C(=O)Nc2ccccc2F)Oc2cc(-c3ccc(C(=O)N(C)C)cc3)ccc2S1(=O)=O	x	0	-2	3	0	16
CCOc1ccc(Br)cc1S(=O)(=O)NCc1ccc(S(N)(=O)=O)cc1	11	-3	-2	-1	0	13
CCOC(=O)NNS(=O)(=O)c1cc(Br)ccc1Br	2	-1	1	-102	43*	4
Cc1ccc(S(=O)(=O)N(C)C[C@@H]2Oc3ccc(NC(=O)Cc4cn(C)c5ccccc45)cc3C(=O)N([C@@H](C)CO)C[C@H]2C)cc1	x	-9	-3	4	0	-1
CC(C)(C)c1[nH]nc2c1C(c1ccncc1)C(C#N)=C(N)O2 (stereo not drawn)	-4	x	x	x	x	-8
CC(C)(C)c1[nH]nc2c1C(c1ccsc1)C(C#N)=C(N)O2 (stereo not drawn)	6	7	2	5	43*	x
O=S(=O)(NC1=NCCCCC1)c1ccccc1Cl	-2	4	-2	23	0	446*	Yeast UUG start-2=-2
O=C(NC(=S)NCCc1ccccc1)C1CCCCC1	1	5	1	-1	0	-29
O=C(CNC(=S)NC(=O)C1CCCCC1)c1ccccc1	4	-12	-5	-6	0	523*	Yeast UUG start-2=2
CN(N=Nc1ccccc1C(=O)O)C1CCCCC1	11	0	0	0	-1	169*	Yeast UUG start-2=-5
COc1cccc(CNC(=O)C[C@@H]2C=C[C@H](NC(=O)C3CCOCC3)[C@@H](CO)O2)c1	x	10	1	-1	0	-8
CCCCCn1c(SCCN2CCOCC2)nc2c1c(=O)[nH]c(=O)n2C	-31	x	x	x	x	361*	Yeast UUG start-2=-8

A draw from above in order of length of the SMILES, descending.
SMILES	PDI inh	S100A4 inh HTS	SIRT5 block	ERp5 block	FGF22 binding	Yeast UUG start-1	others
CCOc1ccc(Br)cc1S(=O)(=O)NCc1ccc(S(N)(=O)=O)cc1	11	-3	-2	-1	0	13
CCCCCn1c(SCCN2CCOCC2)nc2c1c(=O)[nH]c(=O)n2C	-31	x	x	x	x	361*	Yeast UUG start-2=-8
CN(N=Nc1ccccc1C(=O)O)C1CCCCC1	11	0	0	0	-1	169*	Yeast UUG start-2=-5

From PubChem BioAssay
